Test results as given in US20180238885A1.

Molecular target: ISGF3γ (UniProt Q00978)
Experiment: P-LISA interaction level; median over the tumours of 31 GBM patients

DNMT3A (DNA methyltransferase 3A) (from UniProt Q9Y6K1 1-912) (enzyme)
median of DNMT3A/ISGF3γ interaction: 12.5
